An excerpt weighted towards active compounds, which were near 0.46% of everything screened.
GIV Gai3 FP: inhibitors of GIV GBA-motif binding to rat Galpha-i3; P08753; Galpha-i3/FITC-GIV peptide fluorescence polarization, 90 min; stronger effect = lower value; scaled: aluminum fluoride 0%, vehicle 100%; percent of control (FP), % (test concentration not listed); 210,000 tested, 0.42% active; AID 1224905;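 active = replicate mean at 85% of control or lower, very high polarization wells dropped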;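 note: wells of about 15 µL received 100 nL stock; the first replicate is given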
HCMV UL50-53 inh: inhibitors of HCMV UL50-UL53 interaction, biochemical, HTRF; inhibition, % (concentration not given with the values); normalized percent inhibition; AID 1918969, 2023; actives 0.15% (n = 190,000); in the data active means inhibition above about 27%, passing the limit was not always enough
GIV-Gai FP conf: inhibitors of GIV peptide binding to Galpha-i3, confirmation, biochemical, fluorescence polarization, FITC-GIV peptide, rat Galphai3. fluorescence polarization, mP at 100 µM. AID 1259350, 2017. active compounds read low. actives 38% (n = 580). shares compounds with GIV Gai3 FP;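 active means inhibition score of 15 or more, meaning 100 minus mean polarization as percent of control over three replicates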;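 further: lower mP means peptide displaced from Galphai3 so more inhibition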
GIV Gai AS conf: inhibitors of GIV binding to Galpha-i3, confirmation, orthogonal assay for GIV-Galpha-i inhibitor project, biochemical, AlphaScreen, His-GIV, GST-Galphai3. purified proteins, 90 min; active compounds read low. actives 39% (n = 580). shares compounds with GIV Gai3 FP. AID 1259351, 2017. AlphaScreen counts at 100 µM;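 active means inhibition score at or above a set limit, where the score is 100 minus the three-replicate mean percent of control signal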
Of the large screens only hits and unclear results are named; the others gave an inactive call (follow-up assays come after a bar, where they were run).

CCOc1ccc(-c2nc3ccc(-c4nc5ccc(N6CCN(C)CC6)cc5[nH]4)cc3[nH]2)cc1	HCMV UL50-53 inh 75 (no result: GIV Gai3 FP)
CCOc1ccc(NS(=O)(=O)c2ccc3nc(-c4ccccc4)[nH]c3c2)cc1	none
CCCC1C2CN(Cc3ccccc3)CC=C2C(C#N)=C(N)C1(C#N)C#N (stereo not given)	GIV Gai3 FP 20
CC(=O)N1CC=C2C(C#N)=C(N)C(C#N)(C#N)C(Cc3ccccc3)C2C1 (stereo not given)	none
N#CC1=C(N)C(C#N)(C#N)C(c2ccc(Br)cc2)C2CN(Cc3ccccc3)CC=C12 (stereo not given)	none (no result: HCMV UL50-53 inh)
N#CC1=C(N)C(C#N)(C#N)C(c2ccc(Cl)cc2)C2CN(Cc3ccccc3)CC=C12 (stereo not given)	GIV Gai3 FP -58 (no result: HCMV UL50-53 inh)
CC(C)CC1C2CN(Cc3ccccc3)CC=C2C(C#N)=C(N)C1(C#N)C#N (stereo not given)	none
CN1CC=C2C(C#N)=C(N)C(C#N)(C#N)C(CCc3ccccc3)C2C1 (stereo not given)	GIV Gai3 FP -8.8
O=C(/C=C/c1ccc(Cl)cc1)Nc1cccc(Cl)c1	none
S=c1n(CN2CCC3(CC2)OCCO3)nc(-c2ccc(Cl)cc2)n1-c1ccccc1	none (no result: HCMV UL50-53 inh)
COc1cccc(C2=NOC(C(=O)Nc3cc(C)on3)C2)c1 (stereo not given)	none
COc1ccc(-c2noc(-c3nn(-c4ccc(C)c(C)c4)ccc3=O)n2)cc1	none (no result: HCMV UL50-53 inh)
CCOc1ccccc1C1C(C#N)=C(N)SC(N)=C1C#N	GIV Gai3 FP -78
CCc1ccc(C2C(C#N)=C(N)SC(N)=C2C#N)cc1	none (no result: GIV Gai3 FP)
CCOC(=O)N1CC=C2C(C#N)=C(N)C(C#N)(C#N)C(CC)C2C1 (stereo not given)	none
CCCC1C2CN(C(C)C)CC=C2C(C#N)=C(N)C1(C#N)C#N (stereo not given)	GIV Gai3 FP 79 | GIV-Gai FP conf inactive | GIV Gai AS conf inactive
CN(C)C(=O)Nc1cccc(-c2ccc(N(C)C)cc2)c1	none (no result: GIV Gai3 FP)
COCc1cc(Cl)nc2cc(NC(=O)C(F)(F)F)c(C)cc12	none (no result: GIV Gai3 FP)
COc1ccc2nc(N(Cc3cccnc3)C(=O)Cc3ccccc3)sc2c1	none (no result: HCMV UL50-53 inh)
CCc1ccc2nc(N(Cc3cccnc3)C(=O)Cc3ccccc3)sc2c1	GIV Gai3 FP 37 (no result: HCMV UL50-53 inh) | GIV-Gai FP conf inactive | GIV Gai AS conf inactive
N#C/C(=C\c1cn(-c2ccccc2)nc1-c1cccs1)c1ccc(C#N)cc1	none
CC(=O)N1CCc2cc(S(=O)(=O)NC(CC(C)C)C(=O)NCCc3cccc(C)c3)ccc21 (stereo not given)	none
CCOCCn1c(=NC(=O)c2ccc3c(c2)OCCO3)sc2cc(OCC)ccc21	none (no result: HCMV UL50-53 inh)
COCCn1c(=NC(=O)c2ccc3c(c2)OCCO3)sc2cc(NC(C)=O)ccc21	GIV Gai3 FP 80 (no result: HCMV UL50-53 inh) | GIV-Gai FP conf inactive | GIV Gai AS conf inactive
CCOC(=O)NC(=S)c1ccc[nH]1	none
O=C(Nc1ccc(N2CCOCC2)c2nonc12)c1cccs1	none
COc1ccc(NC(=S)Nc2ccc(N3CCOCC3)c3nonc23)cc1OC	GIV Gai3 FP 72 | GIV-Gai FP conf 56 | GIV Gai AS conf 23631
CCN(CC)C(=O)C1CCN(S(=O)(=O)c2ccc(C)cc2)CC1	none
CCOc1cc(C(=O)Nc2ccc(N3CCCC3=O)cc2)cc(OCC)c1OCC	none
O=S(=O)(c1ccc2c(c1)CCCN2)N1CCCCC1	none (no result: GIV Gai3 FP)
CCN(CC)c1ccc2c(c1)CCCN2	GIV Gai3 FP 53 | GIV-Gai FP conf inactive | GIV Gai AS conf 11170
CCCc1cc(=O)n2[nH]c(C(F)(F)F)c(-c3ccccc3)c2n1	none
NC(=O)C[n+]1cccc2ccccc21	GIV Gai3 FP 80 (no result: HCMV UL50-53 inh) | GIV-Gai FP conf 48 | GIV Gai AS conf 5016
NC(=O)C[n+]1ccc(/C=N/O)cc1	none
O=C(CNc1ccccc1)Nc1ccccc1	none (no result: GIV Gai3 FP)
Cc1nn(-c2ccc(Cl)cc2)c(C)c1S(=O)(=O)NC1CC1	none
CCOC(=O)C(Cc1ccc(O)cc1)NC1=CC(=O)C(=O)c2ccccc21 (stereo not given)	GIV Gai3 FP 82 (no result: HCMV UL50-53 inh) | GIV-Gai FP conf 53 | GIV Gai AS conf inactive
CCOC(=O)C(Cc1ccc(O)cc1)NS(=O)(=O)c1ccc2c(c1)C(=O)c1ccccc1C2=O (stereo not given)	none (no result: HCMV UL50-53 inh)
CCn1cc(/C=C2/C(=O)N(c3ccccc3)c3ccccc32)c2ccccc21	GIV Gai3 FP 53 (no result: HCMV UL50-53 inh) | GIV-Gai FP conf inactive | GIV Gai AS conf inactive
CCn1cc(/C=C2/C(=O)N(c3ccccc3)N=C2C)c2ccccc21	none (no result: GIV Gai3 FP)
Cn1c(=O)n(CC(=O)O)c(=O)c2c1nc1n2CCN1c1ccc(F)cc1	GIV Gai3 FP 85 | GIV-Gai FP conf inactive | GIV Gai AS conf inactive
Cn1c(=O)n(CC(=O)O)c(=O)c2c1nc1n2CCCN1c1ccc(F)cc1	none
CC1=NN(c2ccccc2)C(=O)C1C(c1ccccc1)C(C#N)C#N (stereo not given)	none (no result: HCMV UL50-53 inh)
CC1=NN(c2ccccc2)C(=O)C1C(c1ccc2c(c1)OCO2)C1C(=O)N(c2ccccc2)N=C1C (stereo not given)	GIV Gai3 FP 72 (no result: HCMV UL50-53 inh) | GIV-Gai FP conf inactive | GIV Gai AS conf 17537
CC(=O)Nc1cc2nc3[nH]c(=S)[nH]c(=O)c3nc2cc1C	none
CC(=O)Nc1cc2nc3[nH]c(=O)n(C)c(=O)c3nc2cc1C	GIV Gai3 FP 69 | GIV-Gai FP conf inactive | GIV Gai AS conf inactive
CCCCCCn1c(=O)[nH]c2nc3cc(N)c(C)cc3nc2c1=O	none
Cc1cc2nc3c(=O)n(C)c(=O)[nH]c3nc2cc1N=CN(C)C	none | GIV-Gai FP conf 12 | GIV Gai AS conf 26021
COc1cccc(C2C(C#N)=C(N)Oc3n[nH]c(-c4ccc5c(c4)OCO5)c32)c1OC (stereo not given)	none
COc1ccccc1OCc1ccoc1C(=O)O	GIV Gai3 FP 82 | GIV-Gai FP conf inactive | GIV Gai AS conf 18278
COc1ccc(C(=O)NCc2ccoc2C(=O)O)cc1	none (no result: GIV Gai3 FP)
COc1cccc(CNC(=O)c2ccc3cnn(Cc4cccc(Cl)c4)c3c2)c1	none
Cc1ccc(Cn2ccc(NC(=O)c3cc(-c4ccc(Cl)c(Cl)c4)on3)n2)cc1	none
O=C(CC1SC(=O)NC1=O)Nc1cccc(NC(=O)CC2SC(=O)NC2=O)c1 (stereo not given)	GIV Gai3 FP 76 | GIV-Gai FP conf 62 | GIV Gai AS conf 9767
O=C(CC1SC(=O)NC1=O)Nc1ccc(O)cc1 (stereo not given)	none
CC(=O)Nc1nonc1NC(C)=O	none
CC(=O)Nc1cc(OC(C)=O)c2nonc2c1OC(C)=O	GIV Gai3 FP -28, HCMV UL50-53 inh 101 | GIV-Gai FP conf 16 | GIV Gai AS conf 3290
COc1ccccc1Oc1ccnc(-c2cccc(C(=O)Nc3cccc(C)c3)c2)n1	none (no result: HCMV UL50-53 inh)
Cc1ccccc1C(=O)Nc1cc(C)c2c(=O)oc3ccccc3c2n1	none (no result: HCMV UL50-53 inh)
COc1cc(C(=O)Nc2cc(C)c3c(=O)oc4ccccc4c3n2)cc(OC)c1OC	none | GIV-Gai FP conf inactive | GIV Gai AS conf inactive
